Assay results published in patent US10213415B2, “Compounds as opioid receptor modulators” (JANSSEN PHARMACEUTICA NV, priority 2004, dated 2019).

Amino acid sequences for entries named in this document (tags omitted).
UniProt P32300, whole entry: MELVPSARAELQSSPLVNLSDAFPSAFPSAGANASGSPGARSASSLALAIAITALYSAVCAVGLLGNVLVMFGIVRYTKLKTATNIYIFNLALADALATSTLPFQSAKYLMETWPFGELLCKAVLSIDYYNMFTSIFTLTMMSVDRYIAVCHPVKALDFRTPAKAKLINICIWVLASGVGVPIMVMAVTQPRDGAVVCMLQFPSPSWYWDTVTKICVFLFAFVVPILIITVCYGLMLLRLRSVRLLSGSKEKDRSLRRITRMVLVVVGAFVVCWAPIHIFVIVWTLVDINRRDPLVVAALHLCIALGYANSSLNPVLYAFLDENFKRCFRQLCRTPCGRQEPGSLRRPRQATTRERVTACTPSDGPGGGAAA
UniProt P33533, whole entry: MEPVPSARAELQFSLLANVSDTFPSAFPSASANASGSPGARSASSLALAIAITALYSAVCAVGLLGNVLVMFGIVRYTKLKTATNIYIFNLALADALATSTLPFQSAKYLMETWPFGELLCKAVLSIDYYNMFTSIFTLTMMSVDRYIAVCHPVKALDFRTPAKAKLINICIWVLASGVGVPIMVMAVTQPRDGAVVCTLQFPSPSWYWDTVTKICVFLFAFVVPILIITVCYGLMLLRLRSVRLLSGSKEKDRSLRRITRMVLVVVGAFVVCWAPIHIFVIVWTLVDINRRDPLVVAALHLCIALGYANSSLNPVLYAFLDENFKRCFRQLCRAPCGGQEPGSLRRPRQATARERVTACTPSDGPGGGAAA
UniProt P35372, whole entry: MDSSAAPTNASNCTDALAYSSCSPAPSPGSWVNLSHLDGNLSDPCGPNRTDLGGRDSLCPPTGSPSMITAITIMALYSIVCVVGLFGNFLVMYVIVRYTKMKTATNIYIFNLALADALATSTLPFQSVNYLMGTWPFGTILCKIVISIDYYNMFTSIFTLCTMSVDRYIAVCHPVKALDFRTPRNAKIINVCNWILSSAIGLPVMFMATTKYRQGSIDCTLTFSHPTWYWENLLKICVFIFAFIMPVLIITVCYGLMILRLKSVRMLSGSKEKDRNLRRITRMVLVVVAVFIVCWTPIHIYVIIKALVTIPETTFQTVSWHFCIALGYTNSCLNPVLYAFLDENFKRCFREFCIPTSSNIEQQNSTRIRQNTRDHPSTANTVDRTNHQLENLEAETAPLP

What was measured:
[1] = target: delta opioid receptor (NG108-15 cell membranes) (Mus musculus, UniProt P32300); experiment: Delta Opioid Receptor Functional Assay: [35S]GTPγS Binding in NG108-15 Cell Membranes, Version 2
Experimental: NG108-15 cell membranes were purchased from Applied Cell Sciences (Rockville, Md.). 8 mg/ml of membrane protein suspended in 10 mM TRIS-HC pH 7.2, 2 mM EDTA, 10% sucrose.
Membranes were maintained at 4-8° C. A portion (1 ml) of membranes was added into 10 ml cold binding assay buffer. The assay buffer contained 50 mM Tris, pH 7.6, 5 mM MgCl2, 100 mM NaCl, 1 mM DTT and 1 mM EGTA. The membrane suspension was homogenized with a Polytron for 2 times and centrifuged at 3000 rpm for 10 min. The supernent was then centrifuged at 18,000 rpm for 20 min. The pellet was saved in a tube and 10 ml assay buffer was added into the tube. The pellet and buffer were mixed with a Polytron.
The pellet membranes (75 μg/ml) were preincubated with SPA (10 mg/ml) at 25° C. for 45 min in the assay buffer. The SPA (5 mg/ml) coupled with membranes (37.5 μg/ml) was then incubated with 0.1 nM [^35S] GTPγS in the same Tris buffer containing 100 μM GDP in total volume of 200 μl. Increasing concentrations of receptor agonists were used to stimulate [^35S] GTPγS binding. The basal binding was tested in the absent agonists and no specific binding was tested in the present 10 μM unlabeled GTPγS. The data were analyzed on a Top counter.
[formula] % Inhibition=(% stimulation by 1 μM SNC80−% stimulation by 1 μM SNC80 in presence of test compound)×100/(% Stimulation by 1 μM SNC80−100) % of Basal=(stimulate−non specific)*100/(basal−non specific). EC50 values were calculated using GraphPad Prism.

delta opioid receptor = delta opioid receptor (Rattus norvegicus, UniProt P33533); experiment: Rat Brain Delta Opioid Receptor Binding Assay-Version 1a ([3H]naltrindole); details: read-out: r Ki δ Ver. 1a; rat forebrain membranes, 0.1 nM [3H]naltrindole; margin of error 10-20%
Experimental: Male, Wistar rats (150-250 g, VAF, Charles River, Kingston, N.Y.) were killed by cervical dislocation, and their brains removed and placed immediately in ice-cold Tris HCl buffer (50 mM, pH 7.4). The forebrains were separated from the remainder of the brain by a coronal transection, beginning dorsally at the colliculi and passing ventrally through the midbrain-pontine junction. After dissection, the forebrains were homogenized in Tris buffer in a Teflon®-glass homogenizer. The homogenate was diluted to a concentration of 1 g of forebrain tissue per 80 mL Tris and centrifuged at 39,000×g for 10 min. The pellet was resuspended in the same volume of Tris buffer containing 5 mM MgCl2 with several brief pulses from a Polytron homogenizer. This particulate preparation was used for the delta opioid binding assay. Following incubation with 0.1 nM of the delta selective ligand [^3H]naltrindole at 25° C. for 2.5 h in a 96-well plate with total 1 mL, the plate contents were filtered through Wallac filtermat B sheets on a Tomtec 96-well harvester. […] To each sample area, Betaplate Scint scintillation fluid (LKB) was added and the resulting radioactivity quantified on a LKB (Wallac) 1205 BetaPlate liquid scintillation counter. Kd and Ki values were calculated using the GraphPad PRISM data analysis program.

human mu opioid receptor = human mu opioid receptor (Homo sapiens, UniProt P35372); experiment: Human Mu Opioid Receptor Binding Assay (CHO membranes, 3H-Damgo); details: read-out: hKi μ

**Q.** What does the source list for `C[C@@H](c1nc(-c2ccccc2)c[nH]1)N(Cc1cccc(C(=O)O)c1)C(=O)[C@@H](N)Cc1ccc(C(N)=O)cc1`?
**A.** DOR GTP-binding Assay v2 (% I) ([1]; % inhibition of agonist-stimulated GTPγS binding): 63.51%; EC50 ([1]; read-out: DOR GTP-binding Assay_v2_ EC50, [35S]GTPγS): 1000 nM; Ki (delta opioid receptor): 4.47 nM; Ki (human mu opioid receptor): 3.27 nM
